# Experimental data as given in PMC6499816, “Molecular determinants regulating selective binding of autophagy adapters and receptors to ATG8 proteins” (Nature Communications, 2019).
# Sequences of proteins named here, by UniProt entry; tags and fusion partners are left off. A change or cut given only in a name is not applied to a line headed by its entry.
# UniProt Q9BXW4: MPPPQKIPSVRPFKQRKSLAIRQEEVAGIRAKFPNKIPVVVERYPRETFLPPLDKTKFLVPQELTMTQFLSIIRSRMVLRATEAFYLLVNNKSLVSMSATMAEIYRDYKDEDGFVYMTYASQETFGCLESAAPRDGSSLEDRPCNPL
# UniProt Q9H0R8, whole entry: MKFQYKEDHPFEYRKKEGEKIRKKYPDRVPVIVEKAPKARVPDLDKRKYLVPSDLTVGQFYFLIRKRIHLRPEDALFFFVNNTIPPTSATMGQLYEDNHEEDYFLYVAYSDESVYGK
# Assays:
# [1] = target: T1, LC3A (Homo sapiens, UniProt Q9H492); experiment: Bio-layer interferometry (BLI), LIR peptide binding to LC3A; settings: non linear regression, n=4 independent experiments
# T1 construct: GST (followed by 3C protease site) (N); made in house; host or cells: bacteria (E. coli BL21 (DE3) pLysS is stated for the GST-ATG8 proteins of the overlay assay)
# Method: (§1) For recombinant protein expression in bacteria, a modified plasmid of pGEX-6P2 (GE Healthcare) (referred to as pAL) containing an N-terminal […] followed by a 3C protease cleavage site was used.
# (§2) Expression was induced by the addition of 0.5 mM IPTG at OD600 = 0.6 and cells were incubated at 25 °C overnight or at 37 °C for 5 h. Harvested cells were lysed in 50 mM Tris-HCl, pH 8.0, 500 mM NaCl, 0.1% Triton X-100, 0.4 mM 4-(2-aminoethyl)-benzenesulfonylfluoride HCl (AEBSF), and 15 µg/ml benzamidine. Fusion protein was batch adsorbed onto Glutathione-Sepharose 4B beads (GE Healthcare). After five washes with wash buffer (50 mM Tris, pH 8.0, 250 mM NaCl, 0.4 mM AEBSF, and 15 µg/ml benzamidine), fusion proteins were eluted in 50 mM Tris, pH 8.0, 2 mM L-glutathione reduced, 0.4 mM AEBSF, and 15 µg/ml benzamidine.
# (§3) The biosensor tip surface immobilized with a ligand is incubated with an analyte in solution, resulting in an increase in optical thickness at the biosensor tip and a wavelength shift, which is a direct measure of the change in thickness. […] Ligand-loaded SA biosensors were then incubated with different concentrations of ATG8. All binding experiments were performed in solid-black 96-well plates containing 200 μl of solution (25 mM Tris, pH 7.5, 150 mM NaCl, 0.5 mM TCEP, 0.1% Tween-20, 1 mg/ml bovine serum albumin (BSA)) in each well at 25 °C with an agitation speed of 1000 rpm. Each measurement was repeated two to five times.
# (§4) Peptides were synthesized using FMOC (fluorenylmethoxycarbonyl) solid-phase peptide chemistry by the Francis Crick Peptide Chemistry Technology Platform and are listed in Supplementary Table 2.
# [2] = target: T2, LC3C (Homo sapiens, UniProt Q9BXW4); experiment: BLI, LIR peptide binding to LC3C; settings: non linear regression, n=4 independent experiments
# T2 construct: GST (followed by 3C protease site) (N); made in house; host or cells: bacteria (E. coli BL21 (DE3) pLysS is stated for the GST-ATG8 proteins of the overlay assay)
# Method: as §1, §2, §3, §4
# [3] = target: T3, GABARAP (Homo sapiens, UniProt O95166); experiment: BLI, LIR peptide binding to GABARAP; settings: non linear regression, n=4 independent experiments
# T3 construct: GST (followed by 3C protease site) (N); made in house; host or cells: bacteria (E. coli BL21 (DE3) pLysS is stated for the GST-ATG8 proteins of the overlay assay)
# Method: as §1, §2, §3, §4
# [4] = target: T4, GABARAPL1 (Homo sapiens, UniProt Q9H0R8); experiment: BLI, LIR peptide binding to GABARAPL1; settings: non linear regression, n=2 independent experiments
# T4 construct: GST (followed by 3C protease site) (N); made in house; host or cells: bacteria (E. coli BL21 (DE3) pLysS is stated for the GST-ATG8 proteins of the overlay assay)
# Method: as §1, §2, §3, §4
# [5] = target: T5, GABARAP K24Q (Homo sapiens, UniProt O95166, K24Q); experiment: BLI, LIR peptide binding to GABARAP K24Q; settings: best-fit value of BLI response; PCM1 WT LIR peptide; n=4
# T5 construct: GST (followed by 3C protease site) (N); made in house
# Method: as §1, §3, §4
# [6] = target: T6, GABARAP Y25H (Homo sapiens, UniProt O95166, Y25H); experiment: BLI, LIR peptide binding to GABARAP Y25H; settings: best-fit value of BLI response; PCM1 WT LIR peptide; n=4
# T6 construct: GST (followed by 3C protease site) (N); made in house
# Method: as §1, §3, §4
# [7] = target: T7, GABARAP R28K (Homo sapiens, UniProt O95166, R28K); experiment: BLI, LIR peptide binding to GABARAP R28K; settings: best-fit value of BLI response; PCM1 WT LIR peptide; n=5
# T7 construct: GST (followed by 3C protease site) (N); made in house
# Method: as §1, §3, §4
# [8] = target: T8, GABARAP K24Q/Y25H/R28K (Homo sapiens, UniProt O95166, K24Q/R28K/Y25H); experiment: BLI, LIR peptide binding to GABARAP K24Q/Y25H/R28K; settings: best-fit value of BLI response; PCM1 WT LIR peptide; n=4
# T8 construct: GST (followed by 3C protease site) (N); made in house
# Method: as §1, §3, §4
# [9] = target: T9, GABARAP Q59E (Homo sapiens, UniProt O95166, Q59E); experiment: BLI, LIR peptide binding to GABARAP Q59E; settings: best-fit value of BLI response; PCM1 WT LIR peptide; n=4
# T9 construct: GST (followed by 3C protease site) (N); made in house
# Method: as §1, §3, §4
# [10] = target: T10, GABARAP K24Q/Y25H/Q59E/F60L (Homo sapiens, UniProt O95166, F60L/K24Q/Q59E/Y25H); experiment: BLI, LIR peptide binding to GABARAP K24Q/Y25H/Q59E/F60L; settings: best-fit value of BLI response; PCM1 WT LIR peptide; n=2
# T10 construct: GST (followed by 3C protease site) (N); made in house
# Method: as §1, §3, §4
# [11] = target: T11, GABARAP L55V (Homo sapiens, UniProt O95166, L55V); experiment: BLI, LIR peptide binding to GABARAP L55V; settings: best-fit value of BLI response; PCM1 WT LIR peptide; n=4
# T11 construct: GST (followed by 3C protease site) (N); made in house
# Method: as §1, §3, §4
# [12] = target: T12, GABARAP F62K (Homo sapiens, UniProt O95166, F62K); experiment: BLI, LIR peptide binding to GABARAP F62K; settings: best-fit value of BLI response; PCM1 WT LIR peptide; n=4
# T12 construct: GST (followed by 3C protease site) (N); made in house
# Method: as §1, §3, §4
# [13] = target: T13, GABARAP L63I (Homo sapiens, UniProt O95166, L63I); experiment: BLI, LIR peptide binding to GABARAP L63I; settings: best-fit value of BLI response; PCM1 WT LIR peptide; n=4
# T13 construct: GST (followed by 3C protease site) (N); made in house
# Method: as §1, §3, §4
# [14] = target: T14, LC3B Q26K (Homo sapiens, UniProt Q9GZQ8, Q26K); experiment: BLI, LIR peptide binding to LC3B Q26K; settings: best-fit value of BLI response; PCM1 WT LIR peptide; n=5
# T14 construct: GST (followed by 3C protease site) (N); made in house
# Method: as §1, §3, §4
# [15] = target: T15, LC3B H27Y (Homo sapiens, UniProt Q9GZQ8, H27Y); experiment: BLI, LIR peptide binding to LC3B H27Y; settings: best-fit value of BLI response; PCM1 WT LIR peptide; n=5
# T15 construct: GST (followed by 3C protease site) (N); made in house
# Method: as §1, §3, §4
# [16] = target: T16, LC3B K30R (Homo sapiens, UniProt Q9GZQ8, K30R); experiment: BLI, LIR peptide binding to LC3B K30R; settings: best-fit value of BLI response; PCM1 WT LIR peptide; n=4
# T16 construct: GST (followed by 3C protease site) (N); made in house
# Method: as §1, §3, §4
# [17] = target: T17, LC3B Q26K/H27Y/K30R (Homo sapiens, UniProt Q9GZQ8, H27Y/K30R/Q26K); experiment: BLI, LIR peptide binding to LC3B Q26K/H27Y/K30R; settings: best-fit value of BLI response; PCM1 WT LIR peptide; n=4
# T17 construct: GST (followed by 3C protease site) (N); made in house
# Method: as §1, §3, §4
# [18] = target: T18, LC3B Q26K/H27Y/E62Q (Homo sapiens, UniProt Q9GZQ8, E62Q/H27Y/Q26K); experiment: BLI, LIR peptide binding to LC3B Q26K/H27Y/E62Q; settings: best-fit value of BLI response; PCM1 WT LIR peptide; n=2
# T18 construct: GST (followed by 3C protease site) (N); made in house
# Method: as §1, §3, §4
compound,measurement,setting,value
CC[C@H](C)[C@H](NC(=O)[C@@H](NC(=O)[C@H](CC(C)C)NC(=O)[C@H](CCCCN)NC(=O)[C@H](CC(C)C)NC(=O)[C@@H]1CCCN1C(=O)[C@H](CC(C)C)NC(=O)[C@H](CC(=O)O)NC(=O)[C@H](CCC(=O)O)NC(=O)[C@@H](NC(=O)[C@H](CCCCN)NC(=O)[C@@H](NC(=O)[C@H](Cc1ccccc1)NC(=O)[C@H](CC(=O)O)NC(=O)[C@H](CCC(=O)O)NC(=O)[C@H](CCC(=O)O)NC(=O)[C@H](CC(=O)O)NC(=O)[C@H](CO)NC(=O)[C@H](CCCCN)NC(=O)[C@H](CCC(N)=O)NC(=O)[C@@H](N)CO)C(C)C)C(C)C)[C@@H](C)O)C(=O)O [PCM1 WT],"Rmax (best-fit value, theoretical response maxium)",[1],3.1
same,"Rmax (best-fit value, theoretical response maxium)",[2],1.702
same,"Rmax (best-fit value, theoretical response maxium)",[3],1.866
same,"Rmax (best-fit value, theoretical response maxium)",[4],2.385
same,Rmax,[5],2.455
same,Rmax,[6],2.405
same,Rmax,[7],2.903
same,Rmax,[8],2.743
same,Rmax,[9],2.292
same,Rmax,[10],2.029
same,Rmax,[11],2.828
same,Rmax,[12],3.015
same,Rmax,[13],3.273
same,Rmax,[14],2.657
same,Rmax,[15],2.232
same,Rmax,[16],2.554
same,Rmax,[17],2.239
same,Rmax,[18],1.991
